The results in this text go back to patent publication US9371331B2, “Modulators of methyl modifying enzymes, compositions and uses thereof” (Constellation Pharmaceuticals, Inc., priority 2012, dated 2016).

Amino acid sequences for entries named in this document (tags omitted). A change or cut given only in a name is not applied to a line headed by its entry.
UniProt Q15910, whole entry Y641N: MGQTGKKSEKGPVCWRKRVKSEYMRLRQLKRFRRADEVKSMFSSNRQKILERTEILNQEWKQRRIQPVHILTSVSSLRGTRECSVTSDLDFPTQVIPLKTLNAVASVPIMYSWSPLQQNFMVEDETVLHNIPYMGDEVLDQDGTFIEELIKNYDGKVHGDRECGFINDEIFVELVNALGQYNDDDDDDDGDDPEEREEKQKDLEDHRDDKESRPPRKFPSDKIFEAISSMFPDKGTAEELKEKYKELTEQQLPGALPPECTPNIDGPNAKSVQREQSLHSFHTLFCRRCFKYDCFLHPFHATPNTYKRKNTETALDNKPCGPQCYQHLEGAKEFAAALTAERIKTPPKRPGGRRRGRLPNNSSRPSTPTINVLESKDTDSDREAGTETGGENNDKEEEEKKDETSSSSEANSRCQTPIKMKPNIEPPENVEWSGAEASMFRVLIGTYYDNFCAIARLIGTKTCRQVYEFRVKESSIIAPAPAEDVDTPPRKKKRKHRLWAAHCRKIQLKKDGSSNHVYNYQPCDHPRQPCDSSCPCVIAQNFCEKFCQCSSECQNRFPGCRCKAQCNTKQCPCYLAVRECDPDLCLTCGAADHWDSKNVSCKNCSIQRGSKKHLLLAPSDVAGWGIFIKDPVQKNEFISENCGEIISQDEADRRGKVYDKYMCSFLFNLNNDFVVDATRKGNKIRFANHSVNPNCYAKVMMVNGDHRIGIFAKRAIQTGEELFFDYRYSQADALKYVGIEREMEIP
UniProt Q15910, whole entry: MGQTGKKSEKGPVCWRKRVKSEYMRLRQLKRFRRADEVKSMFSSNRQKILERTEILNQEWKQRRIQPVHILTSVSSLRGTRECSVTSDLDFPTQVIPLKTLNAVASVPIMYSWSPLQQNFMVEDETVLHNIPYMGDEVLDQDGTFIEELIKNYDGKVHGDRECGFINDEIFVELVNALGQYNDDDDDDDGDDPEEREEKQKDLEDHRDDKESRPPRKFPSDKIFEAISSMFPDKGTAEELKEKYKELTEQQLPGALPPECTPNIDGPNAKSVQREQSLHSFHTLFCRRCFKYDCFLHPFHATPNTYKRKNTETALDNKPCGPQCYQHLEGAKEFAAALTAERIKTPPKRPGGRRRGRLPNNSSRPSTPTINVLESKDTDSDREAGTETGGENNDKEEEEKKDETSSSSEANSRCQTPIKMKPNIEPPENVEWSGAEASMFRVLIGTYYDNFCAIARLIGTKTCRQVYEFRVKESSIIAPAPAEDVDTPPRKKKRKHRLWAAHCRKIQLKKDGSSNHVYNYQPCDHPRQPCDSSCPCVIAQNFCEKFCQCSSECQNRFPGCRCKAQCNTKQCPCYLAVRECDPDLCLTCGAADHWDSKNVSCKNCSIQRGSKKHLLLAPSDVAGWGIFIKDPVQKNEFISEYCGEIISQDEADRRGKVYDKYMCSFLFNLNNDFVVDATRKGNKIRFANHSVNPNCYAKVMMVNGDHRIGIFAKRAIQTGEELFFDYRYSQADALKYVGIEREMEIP
UniProt Q15022, whole entry partner: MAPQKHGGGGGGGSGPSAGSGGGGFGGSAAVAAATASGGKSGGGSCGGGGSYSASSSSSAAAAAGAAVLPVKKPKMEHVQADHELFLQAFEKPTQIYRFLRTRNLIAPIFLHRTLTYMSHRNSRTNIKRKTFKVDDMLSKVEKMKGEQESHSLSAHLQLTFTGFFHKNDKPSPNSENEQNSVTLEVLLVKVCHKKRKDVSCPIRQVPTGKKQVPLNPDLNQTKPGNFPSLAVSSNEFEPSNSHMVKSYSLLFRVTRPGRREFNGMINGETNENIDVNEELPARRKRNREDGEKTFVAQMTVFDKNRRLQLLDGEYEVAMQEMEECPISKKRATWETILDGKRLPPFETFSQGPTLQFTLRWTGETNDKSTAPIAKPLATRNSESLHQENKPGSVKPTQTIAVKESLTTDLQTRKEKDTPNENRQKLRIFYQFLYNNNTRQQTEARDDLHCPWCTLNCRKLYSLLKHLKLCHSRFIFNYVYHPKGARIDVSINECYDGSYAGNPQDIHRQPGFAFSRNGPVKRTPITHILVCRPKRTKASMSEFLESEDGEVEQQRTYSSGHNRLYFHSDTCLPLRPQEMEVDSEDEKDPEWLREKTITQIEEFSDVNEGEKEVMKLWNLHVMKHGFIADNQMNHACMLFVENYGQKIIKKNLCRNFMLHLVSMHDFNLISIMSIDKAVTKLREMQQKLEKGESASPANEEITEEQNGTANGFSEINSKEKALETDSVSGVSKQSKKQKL
UniProt O75530, whole entry partner: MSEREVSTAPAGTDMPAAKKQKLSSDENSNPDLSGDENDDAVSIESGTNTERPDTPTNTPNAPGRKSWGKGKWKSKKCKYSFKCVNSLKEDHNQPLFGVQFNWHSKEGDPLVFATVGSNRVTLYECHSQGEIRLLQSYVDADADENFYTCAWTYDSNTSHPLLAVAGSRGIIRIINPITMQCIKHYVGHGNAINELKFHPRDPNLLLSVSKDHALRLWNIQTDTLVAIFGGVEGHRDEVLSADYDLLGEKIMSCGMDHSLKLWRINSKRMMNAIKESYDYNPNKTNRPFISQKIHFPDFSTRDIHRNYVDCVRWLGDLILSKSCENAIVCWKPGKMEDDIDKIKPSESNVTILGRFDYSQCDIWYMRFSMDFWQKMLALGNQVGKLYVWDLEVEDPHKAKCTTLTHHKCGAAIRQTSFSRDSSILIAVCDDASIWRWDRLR

Test [1] deals with Y641N EZH2 (Homo sapiens, UniProt Q15910, Y641N). The test is described as follows: Y641N EZH2 assay: as EZH2 assay, with reconstituted H3K27Me2 oligonucleosomes as substrate. The format is biochemical. To be noted: Y641N mutant EZH2, H3K27Me2 oligonucleosome substrate; for IC50: read-out: Y641N EZH2 IC50.
For test [2], the target named is EZH2 (rPRC2) (Homo sapiens, UniProt Q15910). The test is described as follows: EZH2 assay: rPRC2, biotinylated oligonucleosomes, 3H SAM methyl transfer (FlashPlate scintillation). To be noted: wild-type EZH2 (rPRC2), biotinylated oligonucleosome substrate; for IC50: read-out: EZH2 IC50. The test is classed as biochemical.
The test system of test [3] is H3K27me3 mark in HeLa cells. The test is described as follows: H3K27me3 MSD Hela Assay. The note with it: read-out: H3K27me3_MSD_HeLa_ (EC50), 96 hours.

Where a name gives a salt, the structure may show the parent alone.

Turning to `Cc1cc(C)c(CNC(=O)c2cnn(-c3ccccn3)c2C)c(=O)[nH]1`, the IC50 in test [1] and in test [2] was over 10000 nM in each case.

Regarding `Cc1cc(C)c(CNC(=O)c2c(C)n(-c3ccccc3C)c3ccccc23)c(=O)[nH]1`, the IC50 in test [1] is 100 to 1000 nM; in test [2], under 100 nM. In addition, the EC50 in test [3] lay within 2000 to 10000 nM.

As for `Cc1cc(C)c(CNC(=O)c2c(C)n(Cc3ccccc3)c3c(=O)n(C)ccc23)c(=O)[nH]1`, the “Y641N EZH2 IC50” value in test [1] is reported as “*(0.5 μM)”. Moreover, the “EZH2 IC50” value in test [2] was “*(10 μM)”.

For the molecule `COc1cc(C)[nH]c(=O)c1CNC(=O)c1c(C)n(C(C)C2CCNCC2)c2ccccc12` (single isomer, unassigned) [Compound 326, (R or S)—N-((4-methoxy-6-methyl-2-oxo-1,2-dihydropyridin-3-yl)methyl)-2-methyl-1-(1-(piperidin-4-yl)ethyl)-1H-indole-3-carboxamide hydrochloride], the IC50 in test [1] and in test [2] was under 100 nM each time. Also, in test [3], the EC50 is 400 to 2000 nM.

Consider `COc1cc(C)[nH]c(=O)c1CNC(=O)c1c(C)n(C(C)C2CCN(C(C)=O)CC2)c2ccccc12` (centres unmarked), for which the IC50 in test [1] and in test [2] was under 100 nM each time. The EC50 in test [3] was 400 to 2000 nM.

As to `Cc1cc(C)c(CNC(=O)c2c(C)n(C(C)c3ccccc3)c3ncncc23)c(=O)[nH]1` (centres unmarked), the IC50 in test [1] was 100 to 1000 nM; in test [2], under 100 nM.

Regarding `Cc1cc(C)c(CNC(=O)c2c(C)n(C3CCOc4ccccc43)c3ncccc23)c(=O)[nH]1` (centres unmarked), the IC50 in test [1] and in test [2] was 100 to 1000 nM each time.

In the case of `COc1cc(C)[nH]c(=O)c1CNC(=O)c1c(C)n(C(C)C2CCOCC2)c2ncccc12` (single isomer, unassigned), in test [1], the IC50 was in the range of 100 to 1000 nM.

For `Cc1cccc(C(C)n2c(C)c(C(=O)NCc3c(C)cc(C)[nH]c3=O)c3ccccc32)c1` (centres unmarked), the IC50 in test [1] and in test [2] was under 100 nM throughout.

Turning to `COCC(C)n1c(C)c(C(=O)NCc2c(OC)cc(C)[nH]c2=O)c2ccncc21` (centres unmarked), the results for the IC50 in test [1] and in test [2] were over 10000 nM and 1000 to 10000 nM, respectively.

As for `Cc1cc(C)c(CNC(=O)c2nn(-c3ccccc3)c3c2CCC3)c(=O)[nH]1`, the IC50 in test [1] and in test [2] was over 10000 nM in each case.

Take `COc1cccc(-c2nn(Cc3ccccc3)cc2C(=O)NCc2c(C)cc(C)[nH]c2=O)c1`: the IC50 in test [1] and in test [2] was over 10000 nM each time.

For the molecule `Cc1cc(C)c(CNC(=O)c2cn(Cc3ccccc3)nc2-c2ccccc2)c(=O)[nH]1`, the IC50 in test [1] and in test [2] was over 10000 nM each time.

In the case of `COc1cc(C)[nH]c(=O)c1CNC(=O)c1c(C)n(C(C)c2ccccc2)c2ncccc12` (centres unmarked), the IC50 was 100 to 1000 nM in test [1] and under 100 nM in test [2]. The EC50 in test [3] was 2000 to 10000 nM.

With `COc1cc(C)[nH]c(=O)c1CNC(=O)c1c(C)n(C(C)c2ccccc2)c2ccccc12` (single isomer, unassigned) [Compound 114, (R or S)N-((4-methoxy-6-methyl-2-oxo-1,2-dihydropyridin-3-yl)methyl)-2-methyl-1-(1-phenylethyl)-1H-indole-3-carboxamide], the half-maximal inhibitory concentration (IC50) in test [1] fell in the range of 1000 to 10000 nM; in test [2] it was 100 to 1000 nM.

`Cc1cc(C)c(CNC(=O)C2C(=O)N(C(C)c3ccccc3)c3ccccc32)c(=O)[nH]1` (centres unmarked): in test [1], the “Y641N EZH2 IC50” value was “*(10 μM)”. Besides, the “EZH2 IC50” value in test [2] is reported as “*(0.5 μM)”.
